From patent US7018987B1 (priority 1998, dated 2006)

Assay: Solubility in water
Conditions: mg per 1 ml water at 25° C.

In order of falling “Solubility” value:
1. Morpholine combretastatin A-4 3′-O-phosphate [Compound 5h]  9000 µg/mL
2. Pyrazole combretastatin A-4 3-O-phosphate [Compound 5k]  8000 µg/mL
3. Lithium combretastatin A-4 3-O-phosphate [Compound 5c]  6000 µg/mL
4. Adenosine combretastatin A-4 3′-O-phosphate [Compound 5m]  4000 µg/mL
5. Calcium combretastatin A-4 3′-O-phosphate [Compound 5a]  2000 µg/mL
6. Piperazine combretastatin A-4 3′-O-phosphate [Compound 5i]  1000 µg/mL
